Test results: ChEMBL document CHEMBL5528080, “Discovery of RORγ Allosteric Fluorescent Probes and Their Application: Fluorescence Polarization, Screening, and Bioimaging” (J Med Chem, 2024)

The chains behind the UniProt entries cited, without tags or fusion partners. Where a name states a change or a piece, a line headed by the entry shows the natural chain unless it says otherwise.
UniProt P51449: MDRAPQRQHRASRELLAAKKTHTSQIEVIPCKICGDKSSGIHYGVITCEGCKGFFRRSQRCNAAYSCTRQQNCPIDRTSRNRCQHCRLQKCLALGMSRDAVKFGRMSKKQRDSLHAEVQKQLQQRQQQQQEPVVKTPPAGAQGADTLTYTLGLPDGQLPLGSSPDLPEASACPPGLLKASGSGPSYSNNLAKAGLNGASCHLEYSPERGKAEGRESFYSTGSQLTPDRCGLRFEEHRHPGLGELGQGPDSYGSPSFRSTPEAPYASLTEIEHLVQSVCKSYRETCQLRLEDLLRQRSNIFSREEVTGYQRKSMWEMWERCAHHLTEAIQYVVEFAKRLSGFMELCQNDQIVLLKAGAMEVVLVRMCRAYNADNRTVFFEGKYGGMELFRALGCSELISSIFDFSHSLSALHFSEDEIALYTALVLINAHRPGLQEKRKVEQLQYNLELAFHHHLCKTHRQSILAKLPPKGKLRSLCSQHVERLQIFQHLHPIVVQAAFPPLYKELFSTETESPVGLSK

Legend:
[1] = molecular target: T1, Nuclear receptor ROR-gamma (Homo sapiens, UniProt P51449); settings: Sf9
[2] = molecular target: T1, Nuclear receptor ROR-gamma; settings: Sf9, dose 0.5 mM, time 30.0 min
[3] = molecular target: T1, Nuclear receptor ROR-gamma; settings: Sf9, filed as negative allosteric modulator, dose 1.0 mM, time 30.0 min

Row | Compound | ΔTm [1] [°C] | inhibition [2] [%] | inhibition [3] [%]
1 | NCCCCCCCCNc1ccc2c(-c3ccc(C(=O)O)cc3)nn(C(=O)c3c(Cl)cccc3C(F)(F)F)c2c1 | 0.8 |  | 
2 | NCCCCCCCNC(=O)c1ccc2c(-c3ccc(C(=O)O)cc3)nn(C(=O)c3c(Cl)cccc3C(F)(F)F)c2c1 | 1.4 |  | 
3 | NCCCCCCNC(=O)c1ccc2c(-c3ccc(C(=O)O)cc3)nn(C(=O)c3c(Cl)cccc3C(F)(F)F)c2c1 | 1.5 |  | 
4 | NCCCCCCNc1ccc2c(-c3ccc(C(=O)O)cc3)nn(C(=O)c3c(Cl)cccc3C(F)(F)F)c2c1 | 0.5 |  | 
5 | NCCC(=O)NCCCCCCNC(=O)c1ccc2c(-c3ccc(C(=O)O)cc3)nn(C(=O)c3c(Cl)cccc3C(F)(F)F)c2c1 | 2.4 |  | 
6 | NCCOCCOCCNC(=O)c1ccc2c(-c3ccc(C(=O)O)cc3)nn(C(=O)c3c(Cl)cccc3C(F)(F)F)c2c1 | 3.3 |  | 
7 | COc1cc(-c2nc3ccccn3c2/N=C/c2c[nH]nc2-c2ccccc2)ccc1O |  | 29.1 | 63.1
8 | NCCCCCCCCNC(=O)c1ccc2c(-c3ccc(C(=O)O)cc3)nn(C(=O)c3c(Cl)cccc3C(F)(F)F)c2c1 | 1.9 |  | 
9 | NCCOCCNC(=O)c1ccc2c(-c3ccc(C(=O)O)cc3)nn(C(=O)c3c(Cl)cccc3C(F)(F)F)c2c1 | 0.05 |  | 
10 | NCCOCCOCCOCCNC(=O)c1ccc2c(-c3ccc(C(=O)O)cc3)nn(C(=O)c3c(Cl)cccc3C(F)(F)F)c2c1 | 1.1 |  | 
11 | NCCCCCCCNc1ccc2c(-c3ccc(C(=O)O)cc3)nn(C(=O)c3c(Cl)cccc3C(F)(F)F)c2c1 | 0.6 |  | 
12 | NCCCCCCC#Cc1ccc2c(-c3ccc(C(=O)O)cc3)nn(C(=O)c3c(Cl)cccc3C(F)(F)F)c2c1 | 0.7 |  | 
